For 21 molecules, IC50 results are on record in patent US20090099157A1, “TETRAHYDRO-PYRAZOLO-PYRIDINE THIOETHER MODULATORS OF CATHEPSIN S” (priority 2007, published 2009).

Sequences of proteins named here, by UniProt entry; tags and fusion partners are left off. Residues count along the entry.
UniProt P25774, 115-331: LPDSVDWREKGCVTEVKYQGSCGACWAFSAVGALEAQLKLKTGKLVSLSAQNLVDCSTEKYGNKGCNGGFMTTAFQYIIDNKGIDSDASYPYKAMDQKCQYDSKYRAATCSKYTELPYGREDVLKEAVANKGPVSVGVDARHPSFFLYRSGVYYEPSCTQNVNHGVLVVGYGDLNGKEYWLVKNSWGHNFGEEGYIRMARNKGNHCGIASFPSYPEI

Each structure is given as a SMILES string.

The target in this assay is Recombinant human cathepsin S (CatS) (Homo sapiens, UniProt P25774). Put plainly: biochemical.

What is called IC50 is the concentration at which inhibition is half-maximal. Turning to `CN(C)CCSc1cc(-c2nn(CCCN3CCC(N4CCCC4=O)CC3)c3c2CN(S(C)(=O)=O)CC3)ccc1C(F)(F)F` [Example 33, 1-[1-(3-{3-[3-(2-Dimethylamino-ethylsulfanyl)-4-trifluoromethyl-phenyl]-5-methanesulfonyl-4,5,6,7-tetrahydro-pyrazolo[4,3-c]pyridin-1-yl}-propyl)-piperidin-4-yl]-pyrrolidin-2-one], the concentration for half-maximal inhibition (IC50) worked out at 1280 nM.

As to `OC(CN1CCC(c2ccccc2)CC1)Cn1nc(-c2ccc(C(F)(F)F)c(SCCN3CCC(F)(F)C3)c2)c2c1CCNC2` (stereo not drawn) [Example 416, 1-{3-[3-{[2-(3,3-Difluoropyrrolidin-1-yl)ethyl]sulfanyl}-4-(trifluoromethyl)phenyl]-4,5,6,7-tetrahydro-1H-pyrazolo[4,3-c]pyridin-1-yl}-3-(4-phenylpiperidin-1-yl)propan-2-ol], the IC50 stood at 180 nM. In the case of `CS(=O)(=O)N1CCc2c(c(-c3ccc(C(F)(F)F)c(SCCN4CCC(N5CCCC5)CC4)c3)nn2CC(O)CN2CCC(O)(c3ccccc3)CC2)C1` (stereo not drawn) [Example 881, 1-(2-Hydroxy-3-{5-(methylsulfonyl)-3-[3-{[2-(4-pyrrolidin-1-ylpiperidin-1-yl)ethyl]sulfanyl}-4-(trifluoromethyl)phenyl]-4,5,6,7-tetrahydro-1H-pyrazolo[4,3-c]pyridin-1-yl}propyl)-4-phenylpiperidin-4-ol], the IC50 was 840 nM. For `CS(=O)(=O)N1CCc2c(c(-c3ccc(C(F)(F)F)c(SCCN4CCC(F)CC4)c3)nn2C[C@H](O)CN2CCN(c3ccccc3F)CC2)C1` [Example 807, (2R)-1-[4-(2-Fluorophenyl)piperazin-1-yl]-3-{3-[3-{[2-(4-fluoropiperidin-1-yl)ethyl]sulfanyl}-4-(trifluoromethyl)phenyl]-5-(methylsulfonyl)-4,5,6,7-tetrahydro-1H-pyrazolo[4,3-c]pyridin-1-yl}propan-2-ol], the half-maximal inhibitory concentration (IC50) amounted to 40 nM. Consider `CS(=O)(=O)N1CCc2c(c(-c3ccc(C(F)(F)F)c(SCCN4CCC(O)C4)c3)nn2CCCN2CCC(N3CCCC3=O)CC2)C1` (stereo not drawn) [Example 43, 1-{1-[3-(3-{3-[2-(3-Hydroxy-pyrrolidin-1-yl)-ethylsulfanyl]-4-trifluoromethyl-phenyl}-5-methanesulfonyl-4,5,6,7-tetrahydro-pyrazolo[4,3-c]pyridin-1-yl)-propyl]-piperidin-4-yl}-pyrrolidin-2-one], for which the IC50 was determined as 490 nM. On to `O[C@@H](CN1CCN(c2ccc(F)cc2)CC1)Cn1nc(-c2ccc(C(F)(F)F)c(SCCN3CCC(F)CC3)c2)c2c1CCNC2` [Example 499, (2S)-1-[4-(4-Fluorophenyl)piperazin-1-yl]-3-{3-[3-{[2-(4-fluoropiperidin-1-yl)ethyl]sulfanyl}-4-(trifluoromethyl)phenyl]-4,5,6,7-tetrahydro-1H-pyrazolo[4,3-c]pyridin-1-yl}propan-2-ol], for which the IC50 stood at 530 nM. Consider `O=C(C1CCN(CC(O)Cn2nc(-c3ccc(C(F)(F)F)c(SCCN4CCCCC4)c3)c3c2CCNC3)CC1)N1CCCC1` (stereo not drawn) [Example 411, 1-(3-{3-[(2-Piperidin-1-ylethyl)sulfanyl]-4-(trifluoromethyl)phenyl}-4,5,6,7-tetrahydro-1H-pyrazolo[4,3-c]pyridin-1-yl)-3-[4-(pyrrolidin-1-ylcarbonyl)piperidin-1-yl]propan-2-ol], for which the IC50 was determined as 1820 nM.

Consider `CC(=O)NC1CCN(C[C@H](O)Cn2nc(-c3ccc(C(F)(F)F)c(SCCN4CCC5CCCCC5C4)c3)c3c2CCN(S(C)(=O)=O)C3)CC1` (stereo partly drawn) [Example 796, N-{1-[(2S)-2-Hydroxy-3-{5-(methylsulfonyl)-3-[3-{[2-(octahydroisoquinolin-2(1H)-yl)ethyl]sulfanyl}-4-(trifluoromethyl)phenyl]-4,5,6,7-tetrahydro-1H-pyrazolo[4,3-c]pyridin-1-yl}propyl]piperidin-4-yl}acetamide], for which the IC50 came out at 35 nM.

On to `CS(=O)(=O)N1CCc2c(c(-c3ccc(C(F)(F)F)c(SCCN4CCCC(F)C4)c3)nn2C[C@@H](O)CN2CCCCCC2)C1` (stereo partly drawn) [Example 470, (2S)-1-Azepan-1-yl-3-{3-[3-{[2-(3-fluoropiperidin-1-yl)ethyl]sulfanyl}-4-(trifluoromethyl)phenyl]-5-(methylsulfonyl)-4,5,6,7-tetrahydro-1H-pyrazolo[4,3-c]pyridin-1-yl}propan-2-ol], for which the half-inhibitory concentration (IC50) is 450 nM. Regarding `CCC(C)NC(=O)N1CCc2c(c(-c3ccc(C(F)(F)F)c(SCCN4CCC(F)CC4)c3)nn2C[C@@H](O)CN2CCCCC2)C1` (stereo partly drawn) [Example 523, 3-[3-{[2-(4-Fluoropiperidin-1-yl)ethyl]sulfanyl}-4-(trifluoromethyl)phenyl]-1-[(2S)-2-hydroxy-3-piperidin-1-ylpropyl]-N-(1-methylpropyl)-1,4,6,7-tetrahydro-5H-pyrazolo[4,3-c]pyridine-5-carboxamide], the half-inhibitory concentration (IC50) was 490 nM. Consider `CS(=O)(=O)N1CCc2c(c(-c3ccc(C(F)(F)F)c(SCCN4CCCCC4)c3)nn2CC(O)CN2CCC(c3ccncc3)CC2)C1` (stereo not drawn) [Example 660, 1-[5-(Methylsulfonyl)-3-{3-[(2-piperidin-1-ylethyl)sulfanyl]-4-(trifluoromethyl)phenyl}-4,5,6,7-tetrahydro-1H-pyrazolo[4,3-c]pyridin-1-yl]-3-(4-pyridin-4-ylpiperidin-1-yl)propan-2-ol], for which the IC50 turned out to be 25 nM. Regarding `CC(=O)N1CCc2c(c(-c3ccc(C(F)(F)F)c(SCCNC(=O)OCc4ccccc4)c3)nn2CC(O)CN2CCC(c3ccccn3)CC2)C1` (stereo not drawn) [Example 774, Phenylmethyl (2-{[5-{5-acetyl-1-[2-hydroxy-3-(4-pyridin-2-ylpiperidin-1-yl)propyl]-4,5,6,7-tetrahydro-1H-pyrazolo[4,3-c]pyridin-3-yl}-2-(trifluoromethyl)phenyl]sulfanyl}ethyl)carbamate], the IC50 came to 80 nM. The same measure for `CS(=O)(=O)N1CCc2c(c(-c3ccc(C(F)(F)F)c(SCC(=O)N4CCCCC4)c3)nn2CC(O)CN2CCC(c3ccccn3)CC2)C1` (stereo not drawn) [Example 258, 1-[5-(Methylsulfonyl)-3-{3-[(2-oxo-2-piperidin-1-ylethyl)sulfanyl]-4-(trifluoromethyl)phenyl}-4,5,6,7-tetrahydro-1H-pyrazolo[4,3-c]pyridin-1-yl]-3-(4-pyridin-2-ylpiperidin-1-yl)propan-2-ol]: 10 nM; for `CC(=O)NC1CCN(CCCn2nc(-c3ccc(C(F)(F)F)c(SCCN4CCCCC4)c3)c3c2CCN(S(C)(=O)=O)C3)CC1` [Example 529, N-(1-{3-[5-(Methylsulfonyl)-3-{3-[(2-piperidin-1-ylethyl)sulfanyl]-4-(trifluoromethyl)phenyl}-4,5,6,7-tetrahydro-1H-pyrazolo[4,3-c]pyridin-1-yl]propyl}piperidin-4-yl)acetamide]: 150 nM. For `CN(C)C1CCN(C[C@H](O)Cn2nc(-c3ccc(C(F)(F)F)c(SCCN4CCC(F)CC4)c3)c3c2CCN(S(C)(=O)=O)C3)CC1` [Example 607, (2S)-1-[4-(Dimethylamino)piperidin-1-yl]-3-{3-[3-{[2-(4-fluoropiperidin-1-yl)ethyl]sulfanyl}-4-(trifluoromethyl)phenyl]-5-(methylsulfonyl)-4,5,6,7-tetrahydro-1H-pyrazolo[4,3-c]pyridin-1-yl}propan-2-ol], the IC50 was determined as 590 nM. Turning to `CS(=O)(=O)N1CCc2c(c(-c3ccc(C(F)(F)F)c(SCCN4CCOCC4)c3)nn2CC(O)CN2CCc3n[nH]cc3C2)C1` (stereo not drawn) [Example 527, 1-[5-(Methylsulfonyl)-3-{3-[(2-morpholin-4-ylethyl)sulfanyl]-4-(trifluoromethyl)phenyl}-4,5,6,7-tetrahydro-1H-pyrazolo[4,3-c]pyridin-1-yl]-3-(2,4,6,7-tetrahydro-5H-pyrazolo[4,3-c]pyridin-5-yl)propan-2-ol], the IC50 turned out to be 570 nM.

On to `CS(=O)(=O)N1CCc2c(c(-c3ccc(C(F)(F)F)c(SCCN4CCOCC4)c3)nn2CC(O)CN2CCN(c3ncccc3Cl)CC2)C1` (stereo not drawn) [Example 813, 1-[4-(3-Chloropyridin-2-yl)piperazin-1-yl]-3-[5-(methylsulfonyl)-3-{3-[(2-morpholin-4-ylethyl)sulfanyl]-4-(trifluoromethyl)phenyl}-4,5,6,7-tetrahydro-1H-pyrazolo[4,3-c]pyridin-1-yl]propan-2-ol], for which the 50% inhibitory concentration (IC50) came out at 55 nM. Take `CC(C)(C)OC(=O)NCCCC(=O)NCCSc1cc(-c2nn(CC(O)CN3CCC(N4CCCC4=O)CC3)c3c2CN(S(C)(=O)=O)CC3)ccc1C(F)(F)F` (stereo not drawn) [Example 124, (3-{2-[5-(1-{2-Hydroxy-3-[4-(2-oxo-pyrrolidin-1-yl)-piperidin-1-yl]-propyl}-5-methanesulfonyl-4,5,6,7-tetrahydro-1H-pyrazolo[4,3-c]pyridin-3-yl)-2-trifluoromethyl-phenylsulfanyl]-ethylcarbamoyl}-propyl)-carbamic acid tert-butyl ester]: the IC50 amounted to 230 nM. For the molecule `CN1CCN(C(=O)N2CCc3c(c(-c4ccc(C(F)(F)F)c(SCCN5CCC(F)CC5)c4)nn3C[C@@H](O)CN3CCCCC3)C2)CC1` [Example 633, (2S)-1-{3-[3-{[2-(4-Fluoropiperidin-1-yl)ethyl]sulfanyl}-4-(trifluoromethyl)phenyl]-5-[(4-methylpiperazin-1-yl)carbonyl]-4,5,6,7-tetrahydro-1H-pyrazolo[4,3-c]pyridin-1-yl}-3-piperidin-1-ylpropan-2-ol], the IC50 came out at 1180 nM. On to `CS(=O)(=O)N1CCc2c(c(-c3ccc(C(F)(F)F)c(SCCN4CCCCC4)c3)nn2CC(O)CN2CCC(c3ccccn3)CC2)C1` (stereo not drawn) [Example 155, 1-[5-(Methylsulfonyl)-3-{3-[(2-piperidin-1-ylethyl)sulfanyl]-4-(trifluoromethyl)phenyl}-4,5,6,7-tetrahydro-1H-pyrazolo[4,3-c]pyridin-1-yl]-3-(4-pyridin-2-ylpiperidin-1-yl)propan-2-ol], for which the IC50 came out at 10 nM. On to `CS(=O)(=O)N1CCc2c(c(-c3ccc(C(F)(F)F)c(SCC(=O)N4CCOCC4)c3)nn2CC(O)CN2CC[C@@H](O)C2)C1` (stereo partly drawn) [Example 408, (3R)-1-{2-Hydroxy-3-[5-(methylsulfonyl)-3-{3-[(2-morpholin-4-yl-2-oxoethyl)sulfanyl]-4-(trifluoromethyl)phenyl}-4,5,6,7-tetrahydro-1H-pyrazolo[4,3-c]pyridin-1-yl]propyl}pyrrolidin-3-ol], for which the IC50 is 330 nM.
